Measurements taken from ChEMBL document CHEMBL1135241 (Bioorg Med Chem Lett, 2002).
pIC50: −log10 of the molar value.

Amino acid sequences for entries named in this document (tags omitted).
UniProt P32300, whole entry: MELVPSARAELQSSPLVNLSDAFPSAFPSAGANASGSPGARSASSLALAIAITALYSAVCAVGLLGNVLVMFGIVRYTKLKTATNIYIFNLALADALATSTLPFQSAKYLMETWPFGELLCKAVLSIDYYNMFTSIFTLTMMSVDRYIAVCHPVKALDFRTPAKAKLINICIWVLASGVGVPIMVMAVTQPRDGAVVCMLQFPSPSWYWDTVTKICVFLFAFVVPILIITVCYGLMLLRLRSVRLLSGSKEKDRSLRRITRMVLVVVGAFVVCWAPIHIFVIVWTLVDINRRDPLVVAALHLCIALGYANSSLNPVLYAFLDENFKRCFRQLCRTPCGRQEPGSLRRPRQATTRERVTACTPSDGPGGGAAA

Target: Delta-type opioid receptor (Mus musculus, UniProt P32300)
Assay: In vitro biological activity by electrically induced smooth muscle contractions in mouse vas deferens (Opioid receptor delta 1); inhibitory concentration was evaluated
Type: functional

With `CC(C)[C@H](NC(=O)[C@H](CC(=O)O)NC(=O)[C@H](Cc1ccccc1)NC(=O)[C@@H](C)NC(=O)[C@@H](N)Cc1ccc(O)cc1)C(=O)N[C@H](C(=O)NCC(N)=O)C(C)C` [DELTORPHIN C] as the molecule, how does the pIC50 read?
The pIC50 was 9.24.
